These are literature values, as cited in patent publication US8853185B2, “Coferons and methods of making and using them” (Cornell University, priority 2008, dated 2014).

By Kd is commonly meant the equilibrium constant for the complex coming apart.

The series addresses T1, SMAC/DIABLO (Homo sapiens, UniProt Q9NR28).
T1 sequence (Q9NR28 22-239): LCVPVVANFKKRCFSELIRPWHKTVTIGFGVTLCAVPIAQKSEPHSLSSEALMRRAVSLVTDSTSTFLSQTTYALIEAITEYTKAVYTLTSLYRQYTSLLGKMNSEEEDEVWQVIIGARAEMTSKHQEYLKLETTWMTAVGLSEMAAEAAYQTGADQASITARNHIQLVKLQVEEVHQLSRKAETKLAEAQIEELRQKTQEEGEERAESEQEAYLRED
The conditions noted are these: read-out: DISSOCIATION CONSTANT (Kd); cited from earlier work.

In the case of XIAP: binding partner of SMAC/DIABLO, the Kd is 800 nM.
